# Values quoted from earlier work in article PMC5427923, “A novel CCR2 antagonist inhibits atherogenesis in apoE deficient mice by achieving high receptor occupancy” (Scientific Reports, 2017).
# Tested on: hCCR2b
# Details: ref Vilums et al. [25], tested as the radiolabelled form; cited from earlier work
structure (smiles),measurement,value
CCO[C@H]1CN(C2CCC(O)(c3ccc4c(c3)OCO4)CC2)C[C@@H]1NC(=O)CNC(=O)c1cccc(C(F)(F)F)c1 (mixture of isomers) [INCB3344],KRI,1.0 (1.0)
same,RT,76 min
